Measurements published in patent publication US10314825B2, “Agent for treatment of PBC” (KOWA COMPANY, LTD., priority 2017, dated 2019).

System: patients with dyslipidemia showing a high level of triglyceride (TG)
Experiment: Changes in ALP levels after 12 weeks, clinical trial data (Example 1)
Type: in vivo, human
Settings: 200 mg/day micronized fenofibrate capsule formulation, 12 weeks vs baseline
Method: By using data (1965 cases in total) obtained in a clinical trial (8 tests with an administration period of 12 weeks or more) of Compound A, which had been performed for patients with dyslipidemia showing a high level of triglyceride (TG), the effects of Compound A for ALP and total bilirubin were investigated. Compound A was administered at a dose of 0.05 to 0.4 mg per day to Compound A group. Further, placebo or fenofibrate (100 to 200 mg per day) was administered to a control group. Each compound was administered to Compound A group and a control group for 12 weeks, and changes in the levels of ALP before and after the administration are shown in Table 1 and FIG. 1, and changes in the levels of total bilirubin before and after the administration are shown in Table 2 and FIG. 2. Note that comparisons between the groups were investigated by using covariance analysis with baseline levels used as covariates.

Q: How did the “ALP level, Rate of change (LSmean)” value turn out when `CC(C)OC(=O)C(C)(C)Oc1ccc(C(=O)c2ccc(Cl)cc2)cc1` [fenofibrate] was run?
A: The value was −16.9.
